Columns and labels:
Format in all cases: cell-based, human
[1] = test system: T2 cells; assay: IFNγ release by CTL (ELISA) after incubation with peptide-loaded T2 cells; settings: CTL elicited with the corresponding HER2/neu peptide, 20 h, 10^5 CTL/well
Protocol: In interferon gamma-release assays, 10^5 HER2/neu-specific CTL were co-incubated with 10^5 peptide-loaded T2 cells for 20 hours at 37° C. The concentrations of human interferon gamma in co-cultured supernatants were then determined by ELISA. The results of the ELISA experiments are shown in table 37 A-D. These findings are in parallel with the ^51Cr-release experiments, and confirm that the most efficient constructs in facilitating the HER2/neu peptide presentation are the constructs of the type HER-IN-AF. As in the ^51Cr-release experiments, the constructs with the peptides HER369-377 and HER654-662 were the most efficient, while the constructs with the peptide HER789-797 were the least efficient, especially on days 5 and 8 after peptide loading.

[2] = test system: ICP47-transfected cells MCF7; assay: Functional blockade of TAP by ICP47, 51Cr-release from peptide-loaded cells; settings: for Percent 51Cr Released From ICP47-transfected MCF7 cells loaded with the construct: CTL reactive against the corresponding HER2/neu peptide, 3 days after peptide loading, 6-hour assay
Text: Another aspect in these studies was to determine the mechanisms of enhancement of the antigen presentation by the fusion peptides in human tumor cell lines. Therefore, a new test system was developed utilizing the Herpes Simplex virus (HSV) protein ICP47. ICP47 is a cytoplasmic protein, which interferes with antigen presentation by physically associating with TAP within the cell and inhibiting peptide transport across the ER-membrane. By transfecting the ICP47 gene into several cancer cell lines a novel system for screening different fusion peptides for TAP-independent translocation of peptide antigens through the ER-membrane was generated.
The breast cancer cell line MCF7 was transfected with ICP47, and observed permanent block of the function of TAP, and therefore lack of recognition of these cells by the CTL, which normally recognize and kill them. […] The expression of these antigens was detected by ^51Cr-release assays. […] This confirms that the signal sequence approach is very effective in improving antigen presentation, even in tumor cells with deficiency of antigen processing/presentation.

[3] = test system: T2 cells; assay: 51Cr-release assay, T2 cells loaded or pulsed with signal sequence constructs, at periods after loading; settings: Eight days after loading
Text: By “loading” of the fusion peptides into the cytosol of T2 cells, cancer cells and dendritic cells is meant use of a technology called “osmotic lysis of pinocytic vesicles.” T2 cells were exposed to hypertonic medium containing the peptide constructs. Pinocytic vesicles form in this medium, and because of their increased internal osmotic pressure, they break in the cytosol when the cells are placed in hypotonic culture medium. The invention is based on a hypothesis that the signal sequence will translocate the minimal tumor-specific peptide from the cytosol into the ER, improving its presentation to CTL.
The induction of CTL in human PBMC was monitored in a conventional ^51Cr-labeling release assay. Briefly, peptide-pulsed TAP^−/HLA-A2.1^+ human T2 cells were incubated with 10 μg of HER2/neu peptides or the MART-1 control peptide for 90 min during labeling with ^51Cr. After washing, the target cells were added to serially diluted effectors in 96-well microplates. After a 6-h incubation at 37° C., supernatants were harvested and counted in a gamma counter. Results are expressed as the percentage of specific lysis and determined as follows: [(experimental cpm−spontaneous cpm)/(maximum cpm−spontaneous cpm)]×100. (Table 36).
Peptide-loaded or pulsed T2 cells were tested for their ability to present HER2/neu peptides at different periods of time after loading or pulsing. […]

[4] = test system: breast cancer cells MDA-MB-231; assay: 51Cr-release assay, MDA-MB-231 cells loaded or pulsed with signal sequence constructs; settings: loading; days 1-8 after loading
Text: ^51Cr-release assays were used to test to see if the low HER2/neu-expressing breast cancer cells MDA-MB-231 can be recognized more efficiently by the HER2/neu-specific CTL after loading with the fusion peptides. Determination was also made by ELISA to see if the peptide-loaded breast cancer cells can induce release of interferon gamma by the HER2/neu-specific CTL.
The lysis of the tumor cells by the HER2/neu-specific CTL was monitored in a conventional ^51Cr-labeling release assay. Briefly, peptide-loaded tumor cells were added to serially diluted effectors in 96-well microplates. After a 6-h incubation at 37° C., supernatants were harvested and counted in a gamma counter. Results are expressed as the percentage of specific lysis and determined as follows: [(experimental cpm−spontaneous cpm)/(maximum cpm−spontaneous cpm)]×100.
Peptide-loaded breast cancer cells MDA-MB-231 were tested for their ability to present HER2/neu peptides at different periods of time after loading or pulsing. Tumor cells loaded with the constructs composed of signal sequence at the amino-terminus of the peptides were recognized by CTL up to eight days after loading (FIGS. 12-13, left column). In contrast, constructs with carboxy-terminal position of the signal sequence were not efficient, even when ^51Cr-release assays were performed immediately after loading. […]

[5] = test system: breast cancer cells MDA-MB-231; assay: IFNγ release by CTL (ELISA) after incubation with peptide-loaded MDA-MB-231 cells; settings: CTL elicited with the corresponding HER2/neu peptide, 20 h, 10^5 CTL/well
Protocol: In interferon gamma release assays, 10^5 HER2/neu-specific CTL were co-incubated with 10^5 peptide-loaded tumor cells for 20 hours at 37° C. The concentration of human interferon gamma in co-cultured supernatants was then determined by ELISA. The results of the ELISA experiments are shown in Table 39 A-D. These findings are in parallel with the ^51Cr-release experiments, and confirm that the most efficient constructs in facilitating the HER2/neu peptide presentation are the constructs of the type HER-IN-AF.

M A KIFGSLAFL A A A A A G (MAKIFGSLAFLAAAAAG) [HER369-377-IN-AF]
Release of IFNγ by CTL, T2 cells loaded with the peptide ([1]; Day 1 after peptide loading): 3288 pg/mL | Release of IFNγ by CTL, T2 cells loaded with the peptide ([1]; Day 3 after peptide loading): 2401 pg/mL | Release of IFNγ by CTL, T2 cells loaded with the peptide ([1]; Day 5 after peptide loading): 1773 pg/mL | Release of IFNγ by CTL, T2 cells loaded with the peptide ([1]; Day 8 after peptide loading): 878 pg/mL | Restoration of antigen presentation in ICP47-transfected breast cancer cells ([2]; 51Cr-release): able to restore the antigen presentation | Percent 51Cr Released From ICP47-transfected MCF7 cells loaded with the construct ([2]; E:T 20:1): 24% | Percent 51Cr Released From ICP47-transfected MCF7 cells loaded with the construct ([2]; E:T 40:1): 58% | specific 51Cr-release of loaded T2 cells [3]: more than 60% | Recognition by CTL of MDA-MB-231 cells loaded with the peptide (51Cr-release) [4]: still lysed | Release of IFNγ by CTL, MDA-MB-231 cells loaded with the peptide ([5]; Day 1 after peptide loading): 3381 pg/mL | Release of IFNγ by CTL, MDA-MB-231 cells loaded with the peptide ([5]; Day 3 after peptide loading): 2347 pg/mL | Release of IFNγ by CTL, MDA-MB-231 cells loaded with the peptide ([5]; Day 5 after peptide loading): 1897 pg/mL | Release of IFNγ by CTL, MDA-MB-231 cells loaded with the peptide ([5]; Day 8 after peptide loading): 889 pg/mL

Reference: patent US20080044484A1, “Use of polymeric nanoparticles for vaccine delivery” (THE REGENTS OF THE UNIVERSITY OF CALIFORNIA, priority 2004, published 2008)
